Earlier results on 1 compound are cited in patent publication US6998404B2, “Treatment or prevention of acute renal failure” (priority 2001, dated 2006).

For this series the following is noted: patients, aminophylline toxicity; cited from earlier work.

As for `Cn1c(=O)c2[nH]cnc2n(C)c1=O` [aminophylline], the “serum theophylline level at which tachyarrhythmias occur (usually supraventricular but including ventricular tachycardia)” value was 30-40 micrograms/ml.
